Molecules are shown by their SMILES. Read-outs that look alike come from different tables or passages of the source.

Sequences of proteins named here, by UniProt entry; tags and fusion partners are left off. Residues count along the entry.
UniProt Q07889, 560-1049: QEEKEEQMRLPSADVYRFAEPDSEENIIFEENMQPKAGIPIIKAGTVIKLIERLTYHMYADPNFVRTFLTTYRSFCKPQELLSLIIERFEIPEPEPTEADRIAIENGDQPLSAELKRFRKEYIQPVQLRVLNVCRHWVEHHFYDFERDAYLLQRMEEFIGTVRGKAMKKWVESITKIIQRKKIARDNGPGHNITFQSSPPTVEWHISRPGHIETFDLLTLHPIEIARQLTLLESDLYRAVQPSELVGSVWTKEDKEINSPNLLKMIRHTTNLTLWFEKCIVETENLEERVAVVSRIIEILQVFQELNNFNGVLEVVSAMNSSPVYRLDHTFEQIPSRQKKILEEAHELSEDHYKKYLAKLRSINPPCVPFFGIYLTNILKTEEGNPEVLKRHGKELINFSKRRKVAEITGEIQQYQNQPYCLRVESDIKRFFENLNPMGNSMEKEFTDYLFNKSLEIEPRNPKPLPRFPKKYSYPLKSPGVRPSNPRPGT

Assay [1] has as its system pERK in MKN1 cells. The experiment in a line: cells. Format: cell-based. Particulars: Homo sapiens.
The target in assay [2] is recombinant human SOS1 polypeptide (amino acids 560-1049) (Homo sapiens (Human), UniProt Q07889). Particulars: read-out: Ki, Inhibition of Labeled Tracer Binding to SOS1.
Setting [3] is: HTRF displacement, Cy5 labelled tracer, Morrison equation for competitive binding.
Where [4] appears, read: MKN-1, pERK inhibition, In-Cell Western, MKN1 or H358 cells (Table 24 does not say which), 0.5-1 hour incubation, read-out: IC50.

As a reminder, the IC50 is the concentration that inhibits the measured activity by half. Usually Ki stands for the dissociation constant of the complex between target and ligand, obtained from inhibition or displacement. On to `Cc1c([C@@H](C)Nc2nnc(N(C)C)c3ccc(N4CCNCC4)cc23)cccc1C(F)(F)F` [9-2], for which the half-inhibitory concentration (IC50) in assay [1] (MKN-1) was determined as 176 nM. The Ki in assay [2] (setting [3]) worked out at 0.93 nM.

For `Cc1c([C@@H](C)Nc2nnc(C)c3ccc(N4CCN(C)C(=O)C4)cc23)cccc1C(F)(F)F` [Example 6-7, (R)-1-methyl-4-(1-methyl-4-((1-(2-methyl-3-(trifluoromethyl)phenyl)ethyl)amino)phthalazin-6-yl)piperazin-2-one], the IC50 in assay [1] (setting [4]) was found to be 74 nM. For the same compound, the inhibition constant (Ki) in assay [2] (setting [3]) was found to be 0.29 nM.

Regarding `Cc1c([C@@H](C)Nc2nnc(C)c3cnc(N4CCOCC4)cc23)cccc1C(F)(F)F` [Example 6-12, (R)-4-methyl-N-(1-(2-methyl-3-(trifluoromethyl)phenyl)ethyl)-7-morpholinopyrido[3,4-d]pyridazin-1-amine], the IC50 in assay [1] (setting [4]) was determined as 30 nM. Further, the Ki in assay [2] (setting [3]) was determined as 0.88 nM.

`Cc1c(C#N)cccc1[C@@H](C)Nc1nnc(C)c2cc(C(F)(F)F)c(N3CCOCC3)cc12` [Example 19-2, (R)-2-methyl-3-(1-((4-methyl-7-morpholino-6-(trifluoromethyl)phthalazin-1-yl)amino)ethyl)benzonitrile] yielded an IC50 in assay [1] (MKN-1, pERK inhibition, In-Cell Western, MKN1 or H358 cells (Table 24 does not say which), 0.5-1 hour incubation) of 779 nM. Further, in assay [2], the Ki came out at 95 nM.

The values are drawn from patent US11702418B2, “SOS1 inhibitors” (priority 2019, dated 2023).
